# Earlier results as cited in patent US20200390774A1, “TRPA1 ANTAGONISTS FOR USE IN THE TREATMENT OF ATOPIC DERMATITIS” (GALDERMA RESEARCH & DEVELOPMENT, priority 2016, published 2020).
# Chains of the proteins cited; added tags and fusions are not shown.
# UniProt Q8NER1, whole entry: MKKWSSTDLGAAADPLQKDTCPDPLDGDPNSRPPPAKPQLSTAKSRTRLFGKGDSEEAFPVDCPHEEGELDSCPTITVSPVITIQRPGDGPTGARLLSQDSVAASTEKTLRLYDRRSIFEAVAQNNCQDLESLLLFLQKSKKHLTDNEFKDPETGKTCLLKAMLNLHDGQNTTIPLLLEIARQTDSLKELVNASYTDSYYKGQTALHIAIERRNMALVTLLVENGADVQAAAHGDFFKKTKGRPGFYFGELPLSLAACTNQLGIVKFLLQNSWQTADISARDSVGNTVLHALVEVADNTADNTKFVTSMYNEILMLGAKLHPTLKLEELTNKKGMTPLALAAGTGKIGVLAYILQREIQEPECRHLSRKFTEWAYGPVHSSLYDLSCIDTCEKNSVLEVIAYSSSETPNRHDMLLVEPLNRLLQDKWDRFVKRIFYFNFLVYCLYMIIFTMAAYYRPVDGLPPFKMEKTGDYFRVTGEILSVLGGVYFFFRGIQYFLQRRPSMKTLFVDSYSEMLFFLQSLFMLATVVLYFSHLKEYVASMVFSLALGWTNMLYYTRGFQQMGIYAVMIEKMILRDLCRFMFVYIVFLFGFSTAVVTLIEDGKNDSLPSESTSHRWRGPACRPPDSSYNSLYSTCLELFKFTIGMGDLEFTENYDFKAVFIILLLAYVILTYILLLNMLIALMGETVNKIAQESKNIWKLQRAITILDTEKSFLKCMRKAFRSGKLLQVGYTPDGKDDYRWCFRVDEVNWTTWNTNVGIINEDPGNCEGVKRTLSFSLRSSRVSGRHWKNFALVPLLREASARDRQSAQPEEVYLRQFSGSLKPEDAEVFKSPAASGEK
# UniProt Q8NET8, whole entry: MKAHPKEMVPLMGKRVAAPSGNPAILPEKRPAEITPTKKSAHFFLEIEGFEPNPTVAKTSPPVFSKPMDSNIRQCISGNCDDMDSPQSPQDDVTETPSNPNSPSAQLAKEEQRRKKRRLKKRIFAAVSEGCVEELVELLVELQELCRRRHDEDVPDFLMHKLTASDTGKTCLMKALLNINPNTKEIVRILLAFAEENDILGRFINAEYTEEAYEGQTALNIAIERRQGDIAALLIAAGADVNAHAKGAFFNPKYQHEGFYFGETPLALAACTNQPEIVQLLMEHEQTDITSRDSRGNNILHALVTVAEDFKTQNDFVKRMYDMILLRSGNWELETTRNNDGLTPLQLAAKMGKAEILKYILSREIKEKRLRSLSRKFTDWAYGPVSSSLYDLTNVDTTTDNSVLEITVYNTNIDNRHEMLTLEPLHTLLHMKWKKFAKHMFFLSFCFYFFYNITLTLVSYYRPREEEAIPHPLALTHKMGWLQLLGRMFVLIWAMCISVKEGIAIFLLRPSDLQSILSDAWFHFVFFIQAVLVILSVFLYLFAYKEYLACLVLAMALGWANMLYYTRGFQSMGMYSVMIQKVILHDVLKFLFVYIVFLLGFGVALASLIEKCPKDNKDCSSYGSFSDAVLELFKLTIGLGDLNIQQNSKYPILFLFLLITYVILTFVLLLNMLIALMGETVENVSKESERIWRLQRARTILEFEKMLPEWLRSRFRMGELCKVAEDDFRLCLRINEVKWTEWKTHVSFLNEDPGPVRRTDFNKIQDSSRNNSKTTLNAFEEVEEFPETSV
# What was measured:
# hTRPV1 = hTRPV1 (Homo sapiens, UniProt Q8NER1); details: read-out: IC50 hTRPV1; unit inferred; cited from earlier work
# hTRPV3 = hTRPV3 (Homo sapiens, UniProt Q8NET8); details: read-out: IC50 hTRPV3; unit inferred; cited from earlier work
compound,measurement,setting,value
CC1CCCN1c1ncc(-c2cccc(NC(=O)Cn3cnc4c3c(=O)n(C)c(=O)n4C)n2)cn1 (centres unmarked),IC50,hTRPV1,> 100 µM
same,IC50,hTRPV3,> 300 µM
